Assay results reported in patent publication US10258625B2, “Method for treatment of metastatic and refractory cancers and tumors with an inducer that overcomes inhibition of T cell proliferation” (The Wistar Institute of Anatomy and Biology, priority 2015, dated 2019).

System: T cells
Assay: Cytokine rescue of T cell proliferation from MEK inhibition
Type: cell-based, human
Details: IL-2 20 U/ml, IL-7 2 ng/ml, IL-15 10 ng/ml, IL-21 100 ng/ml, IL-27 50 ng/ml, ALT-803 35.7 ng/ml
Method: FIG. 2A is a graph showing that IL-15 can rescue T cell functions from MEK inhibitors. A proliferation of human PBMCs activated with ConA+/−IL-2 (20 U/ml) and IL-7 (2 ng/ml) was quantified with the division index and plotted as percent of the corresponding vehicle treatment for each group. Averages from 3 independent experiments. *=P<0.05 t-test vs ConA only.
Proliferation of CD8 T cells after 7 days is shown.
Proliferation of CD8 T cells is shown.
FIG. 10 is a table that illustrates that IL-15, IL-2, and IL-7 can rescue T cell proliferation from MEK inhibition. Human PBMCs were stained with CELLTRACE reagent and activated with ConA in the presence of vehicle or GDC0973 (1.45 μM) and the indicated cytokines (IL-2=20 U/ml, IL-7=2 ng/ml, IL-15=10 ng/ml, IL-21=100 ng/ml, IL-27=50 ng/ml). Reported are percentages of cells that proliferated with GDC0973 relative to vehicle treatment with the same cytokines after 7 days. Stains are not depicted.
T cell stimulation—For human T cell proliferation assays, peripheral blood lymphocytes were obtained by leukapheresis/elutriation and Miltenyi bead-purified and K562 cells expressing human CD32 were generated as previously described^41. […] Proliferation of stimulated T cells was determined 7 days later by FACS and Division Index was calculated using FlowJo™ software.

IL-2: recombinant human IL-2 (Peprotech)
rescue of T cell proliferation in the presence of the MEK inhibitors: able to rescue
